Test results taken from patent US10123969B2, “Osmotic enhancement of drug/therapeutic delivery to the brain following infusion or injection into the cerebrospinal fluid” (Wisconsin Alumni Research Foundation, priority 2015, dated 2018).

Test: Estimated mannitol concentration in CSF after intracisternal infusion
Conditions: assuming instant mixing

Structure (SMILES): OC[C@@H](O)[C@@H](O)[C@H](O)[C@H](O)CO [mannitol]
- concentration of mannitol in the CSF (80 microliters of 0.27 M mannitol in 250 microliters of CSF): approximately 0.086 M
- concentration of mannitol in the CSF (80 microliters of 0.75 M mannitol into approximately 250 microliters of CSF): approximately 0.24 M
